Assay results published in patent US7390822B2, “Substituted 4-phenyl-4-[1H-imidazol-2-yl]-piperidine derivatives for reducing ischaemic damage” (Janssen Pharmaceutica, N.V., priority 2001, dated 2008).

Biological target: cloned human δ opioid receptor (Homo sapiens, UniProt P41143)
Assay: Radioligand binding, competitive inhibition of [3H]DPDPE
Details: Table 6

In order of falling “pIC50 values for the delta opioid receptor agonist test” value:
1. c1ccc(Cn2ccnc2C2(c3ccccc3)CCN(c3nccs3)CC2)cc1  7.9
2. CC(c1ccccc1)n1ccnc1C1(c2ccccc2)CCN(c2nc3ccccc3o2)CC1 (stereo not shown)  7.8
3. c1ccc(Cn2ccnc2C2(c3ccccc3)CCN(c3ncccn3)CC2)cc1  7.7
4. CCN(CC)C(=O)c1ccc(Cn2ccnc2C2(c3ccccc3)CCN(c3nc4ccccc4o3)CC2)cc1  7.3
